B1: DNA polymerase III subunit epsilon (Escherichia coli (strain K12)), P03007 (parent)
chain: MSTAITRQIVLDTETTGMNQIGAHYEGHKIIEIGAVEVVNRRLTGNNFHVYLKPDRLVDPEAFGVHGIADEFLLDKPTFAEVADEFMDYIRGAELVIHNAAFDIGFMDYEFSLLKRDIPKTNTFCKVTDSLAVARKMFPGKRNSLDALCARYEIDNSKRTLHGALLDAQILAEVYLAMTGGQTSMAFAMEGETQQQQGEATIQRIVRQASKLRVVFATDEEIAAHEARLDLVQKKGGSCLWRA

Variants of: B1
Settings: with dpo3a_ecoli dnaE

| effect of a mutation on the interaction | Variant |
| --- | --- |
| decreasing interaction | V96G |

Reference: IntAct's records for PubMed 9515927
